Experiment [1] concerns the target purified porcine TGF-β1 (porcine) (UniProt P07200). Description: active TGF-β sandwich ELISA, R2X capture; TGF-β standards prepared in 1.4 µmol/L human α2-macroglobulin or 10% FCS.
The target of experiment [2] is recombinant human TGF-β1 (human) (UniProt P01137). Description: active TGF-β sandwich ELISA, R2X capture, BDA47 detection; TGF-β concentration varied. On the technique in general: An ELISA detects its analyte on a solid surface through an enzyme-linked reagent.
Experiment [3] has as its target purified porcine TGF-β1 (porcine) (UniProt P07200). Described as above.

Protein sequences, listed by entry. Tags and fused reporters are not part of them. Residues count along the entry.
UniProt P07200, 279-390 limits assumed: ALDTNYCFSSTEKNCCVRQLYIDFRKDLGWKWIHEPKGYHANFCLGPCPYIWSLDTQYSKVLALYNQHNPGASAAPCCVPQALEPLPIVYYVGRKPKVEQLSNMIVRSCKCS
UniProt P01137, 279-390 limits assumed: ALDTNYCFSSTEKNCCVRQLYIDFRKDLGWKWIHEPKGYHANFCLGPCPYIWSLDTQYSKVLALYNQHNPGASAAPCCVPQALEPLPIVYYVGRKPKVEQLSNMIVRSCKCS

On to “truncated extracellular domain of the type II TGF-beta receptor fused to glutathione-S-transferase (R2X) (from UniProt P37173 23-166)”, for which, in experiment [1], the change of ΔA50% against standards diluted in TBS is less than 10%. The values for the half-maximal change in absorbance (ΔA50%) in experiment [2] and in experiment [3] were 720 pmol/L and 680 pmol/L, respectively.
